Results from patent US9050378B2, “N2S2 chelate-targeting ligand conjugates” (Board of Regents, The University of Texas System, priority 2003, dated 2015).

Key:
[1] = system: A431 (an EGFR overexpressing xenograft); design: species or system mice; conditions: mouse, in vivo, iv
Procedure: The biodistribution of tracer in each sample was calculated as percentage of the injected dose per gram of tissue wet weight (% ID/g).

[2] = system: DiFi human colon cancer cells; assay: Cell proliferation assay (MTT); assay type: cell-based; conditions: versus untreated cells
Procedure: Briefly, DiFi cells are known to undergo apoptosis when they are exposed to C225 in cell culture. Cells were seeded onto 24-well culture plates. Cell viability was assayed by adding 50 ul of 10 mg/ml MTT (3-[4,5-dimethylthiazol-2-yl]-2,5-diphenyltetrazolium bromide) (Sigma) into 0.5 ml of culture medium and the cells were incubated for 3 h at a 37° C. in a CO2 incubator, followed by cell lysis with buffer containing 20% SDS in dimethyl formamide/H2O, pH 4.7, at 37° C. for more than 6 h. Cell viability was then determined by measuring the optical absorbance of cell lysate at a wavelength of 595 nm and normalizing the value with the corresponding untreated cells.

Substance | Total tumor uptake [1] | cell viability / cell proliferation (MTT) [2]
^99mTc-EC-C225 | 6 % of injected dose | 
EC-C225 |  | biologically active in inducing cell death
C225: clinical grade anti-EGF receptor MAb from ImClone Systems |  | induced cell death (apoptosis)
